The record followed here is patent US20070087346A1, “Orthogonal gene switches” (priority 2003, published 2007).

By UniProt entry, the sequences of proteins in these tests, tags left out. Where a name states a change or a piece, a line headed by the entry shows the natural chain unless it says otherwise. Chains listed by the source or under a name are the forms on record and can include a tag or linker. Residues count along the entry.
UniProt P03372, whole entry: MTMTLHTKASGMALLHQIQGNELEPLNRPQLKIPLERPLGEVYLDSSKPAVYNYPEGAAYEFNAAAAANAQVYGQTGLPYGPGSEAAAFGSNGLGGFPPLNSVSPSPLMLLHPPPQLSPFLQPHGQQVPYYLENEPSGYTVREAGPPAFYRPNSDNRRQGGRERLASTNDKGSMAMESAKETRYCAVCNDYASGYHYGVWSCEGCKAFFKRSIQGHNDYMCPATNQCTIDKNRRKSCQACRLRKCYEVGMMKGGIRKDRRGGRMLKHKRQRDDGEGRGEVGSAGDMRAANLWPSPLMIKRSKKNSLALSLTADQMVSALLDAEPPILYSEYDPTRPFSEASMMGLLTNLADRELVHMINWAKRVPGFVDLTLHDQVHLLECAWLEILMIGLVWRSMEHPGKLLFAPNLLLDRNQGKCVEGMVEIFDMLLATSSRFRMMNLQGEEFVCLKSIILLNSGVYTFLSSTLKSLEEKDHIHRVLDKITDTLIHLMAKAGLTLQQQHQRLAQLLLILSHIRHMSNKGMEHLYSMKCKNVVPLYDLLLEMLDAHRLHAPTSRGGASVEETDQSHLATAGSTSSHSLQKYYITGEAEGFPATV
UniProt P03372, 303-595 limits assumed: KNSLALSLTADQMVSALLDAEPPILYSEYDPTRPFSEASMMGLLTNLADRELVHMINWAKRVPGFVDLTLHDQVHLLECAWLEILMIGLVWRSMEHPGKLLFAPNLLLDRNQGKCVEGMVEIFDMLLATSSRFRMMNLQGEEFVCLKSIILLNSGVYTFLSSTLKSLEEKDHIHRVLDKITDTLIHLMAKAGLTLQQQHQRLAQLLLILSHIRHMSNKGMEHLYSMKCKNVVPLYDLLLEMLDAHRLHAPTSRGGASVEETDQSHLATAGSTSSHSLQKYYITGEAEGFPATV
UniProt P03372, 303-595 with tags or gaps G521R/L384M/M421G: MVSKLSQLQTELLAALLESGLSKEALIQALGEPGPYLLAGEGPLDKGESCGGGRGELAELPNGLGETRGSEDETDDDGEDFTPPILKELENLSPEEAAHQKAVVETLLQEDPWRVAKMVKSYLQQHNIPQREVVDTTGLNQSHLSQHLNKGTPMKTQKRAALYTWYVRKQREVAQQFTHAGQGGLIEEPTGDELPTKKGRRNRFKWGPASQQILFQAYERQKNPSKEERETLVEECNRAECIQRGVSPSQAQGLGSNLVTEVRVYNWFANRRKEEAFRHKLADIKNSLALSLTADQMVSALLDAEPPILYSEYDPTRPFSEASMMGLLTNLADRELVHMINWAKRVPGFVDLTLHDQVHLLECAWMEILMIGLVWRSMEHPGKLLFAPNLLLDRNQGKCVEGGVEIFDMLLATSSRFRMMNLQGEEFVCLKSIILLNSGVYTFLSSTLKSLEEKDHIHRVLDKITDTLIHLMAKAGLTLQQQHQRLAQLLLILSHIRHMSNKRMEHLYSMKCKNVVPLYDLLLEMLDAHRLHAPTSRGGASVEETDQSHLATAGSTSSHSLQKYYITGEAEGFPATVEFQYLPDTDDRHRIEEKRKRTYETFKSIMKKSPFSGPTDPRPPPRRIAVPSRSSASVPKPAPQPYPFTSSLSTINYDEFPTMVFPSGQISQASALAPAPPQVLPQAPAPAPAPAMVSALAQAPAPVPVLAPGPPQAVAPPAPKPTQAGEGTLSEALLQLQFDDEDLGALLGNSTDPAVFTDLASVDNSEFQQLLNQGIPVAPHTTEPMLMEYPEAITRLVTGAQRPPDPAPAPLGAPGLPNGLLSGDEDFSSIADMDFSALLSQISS

Counter-ions that a name gives are not always drawn.

For one assay, the target named is GST-ERα wt-LBD (Homo sapiens, UniProt P03372). Briefly: competitive radiometric 3[H]E2 displacement binding assay, wt LBD. The settings on record: read-out: GST-ERα wt-LBD IC50, tested form: trifluoroacetate.
In another assay the target is hERα (Homo sapiens, UniProt P03372). As to the kind of experiment: binding to full-length hERα. The settings on record: read-out: hERα IC50; full-length receptor; tested form: trifluoroacetate.
The target of assay [1] is HEA-2 (L(384)M/M(421)G/G(521)R ER-LBD mutant in the context of HEA-1) (Homo sapiens, UniProt P03372, G521R/L384M/M421G). As to the kind of experiment: SEAP reporter co-transfection in HeLa cells, HEA-2. The assay is classed as cell-based. The settings on record: tested form: trifluoroacetate.

As usually defined, the IC50 is the concentration that gives 50% inhibition. By EC50 is commonly meant the concentration needed to bring the measured effect to its halfway point. Low values mean higher potency in that assay, high ones lower potency in that assay. For the molecule `O=C1CCC2(Cc3ccccc3)Cc3c(ccc4[nH]ncc34)C2=C1c1ccc(OCCN2CCCCC2)cc1` (stereo not drawn) [CMP9, 9a-benzyl-6-{4-[2-(1-pipe-ridinyl)eth-oxy]phenyl}-8,9,9a,10-tetra-hydroindeno[2,1-e]in-dazol-7(3H)-one hydrotrifluoroacetae salt], the results for the IC50 at GST-ERα wt-LBD and on hERα were 1130 nM and 622 nM, respectively. Also, the half-maximal effective concentration (EC50) in assay [1] amounted to 300 nM.
